This test has as its system EZH2. The test is described as follows: Western blot of EZH2 substrate H3K27me3 after HIF-1 inhibitors. To be noted: A549 and H460 cell lines; EZH2 protein expression not affected. (In western blotting, separated proteins are transferred to a membrane and probed.)

With `N[C@@H](Cc1ccc([N+]([O-])(CCCl)CCCl)cc1)C(=O)O`, the “level of the EZH2 substrate H3K27me3” value was “increase in the level of the EZH2 substrate H3K27me3”.

The values are drawn from paper PMC10870044, “The Interplay Between HIF‐1α and EZH2 in Lung Cancer and Dual‐Targeted Drug Therapy” (Advanced Science, 2023).
